Each structure is given as a SMILES string.

Sequences of proteins named here, by UniProt entry; tags and fusion partners are left off.
UniProt P14842, whole entry: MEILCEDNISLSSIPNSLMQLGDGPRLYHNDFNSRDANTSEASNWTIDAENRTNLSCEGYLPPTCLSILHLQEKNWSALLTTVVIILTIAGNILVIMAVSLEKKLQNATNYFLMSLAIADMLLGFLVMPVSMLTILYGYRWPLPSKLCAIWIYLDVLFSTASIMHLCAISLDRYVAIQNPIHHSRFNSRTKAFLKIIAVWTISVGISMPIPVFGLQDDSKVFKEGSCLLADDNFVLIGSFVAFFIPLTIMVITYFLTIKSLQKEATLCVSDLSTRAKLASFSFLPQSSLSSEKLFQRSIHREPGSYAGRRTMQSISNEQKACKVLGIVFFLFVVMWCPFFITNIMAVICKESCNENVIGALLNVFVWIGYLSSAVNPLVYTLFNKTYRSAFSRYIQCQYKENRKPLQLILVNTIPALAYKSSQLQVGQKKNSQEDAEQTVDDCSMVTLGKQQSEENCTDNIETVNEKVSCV

This passage reports Ki results from BindingDB's records for PubMed 7908055 (Case Western Reserve University, 1994).

Test [1] deals with 5-hydroxytryptamine receptor 2A (Rattus norvegicus, UniProt P14842).
Test [2] concerns the target T1, 5-hydroxytryptamine receptor 2C (Rattus norvegicus, UniProt P08909).
T1 sequence (P08909 whole entry): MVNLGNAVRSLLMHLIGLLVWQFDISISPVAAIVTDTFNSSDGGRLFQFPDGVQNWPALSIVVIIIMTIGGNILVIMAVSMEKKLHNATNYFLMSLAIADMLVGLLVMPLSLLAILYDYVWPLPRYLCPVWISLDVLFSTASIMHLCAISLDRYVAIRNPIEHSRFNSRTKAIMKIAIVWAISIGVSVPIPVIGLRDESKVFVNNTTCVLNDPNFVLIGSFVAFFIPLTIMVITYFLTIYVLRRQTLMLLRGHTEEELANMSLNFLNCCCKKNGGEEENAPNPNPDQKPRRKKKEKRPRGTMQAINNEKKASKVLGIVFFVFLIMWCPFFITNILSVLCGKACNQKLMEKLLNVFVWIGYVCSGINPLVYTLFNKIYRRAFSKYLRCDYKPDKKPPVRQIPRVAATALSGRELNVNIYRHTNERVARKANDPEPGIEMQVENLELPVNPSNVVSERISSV

Turning to `O=C(CCCN1CCC2(CC1)C(=O)NCN2c1ccccc1)c1ccc(F)cc1` [8-[4-(4-fluorophenyl)-4-oxidanylidene-butyl]-1-phenyl-1,3,8-triazaspiro[4.5]decan-4-one], the Ki (commonly a measure of affinity in units of concentration, obtained from inhibition or displacement) in test [1] is 0.33 nM; in test [2], 977 nM.
